Read-outs that look alike come from different tables or passages of the source.
Key:
5HT2a receptor = 5HT2a receptor (Rattus norvegicus, UniProt P14842); assay: Interaction with 5HT2a receptor, 3H-ketanserine radioligand binding, prefrontal cortex; conditions: for 5-HT2a pKi: Table 3
D1 receptor = biological target: T1, D1 receptor (Rattus norvegicus, UniProt P18901); assay: Interaction with D1 receptor, [3H]-SCH 23390 radioligand binding, striate; conditions: for D1 pKi: Table 3
T1 construct: was studied using various different cerebral areas (striate D1 and D2; olfactory tubule D3; prefrontal cortex 5HT2a); from tissue; host or cells: striatum ('striate')

Protein sequences, listed by entry. Tags and fused reporters are not part of them.
UniProt P14842, whole entry: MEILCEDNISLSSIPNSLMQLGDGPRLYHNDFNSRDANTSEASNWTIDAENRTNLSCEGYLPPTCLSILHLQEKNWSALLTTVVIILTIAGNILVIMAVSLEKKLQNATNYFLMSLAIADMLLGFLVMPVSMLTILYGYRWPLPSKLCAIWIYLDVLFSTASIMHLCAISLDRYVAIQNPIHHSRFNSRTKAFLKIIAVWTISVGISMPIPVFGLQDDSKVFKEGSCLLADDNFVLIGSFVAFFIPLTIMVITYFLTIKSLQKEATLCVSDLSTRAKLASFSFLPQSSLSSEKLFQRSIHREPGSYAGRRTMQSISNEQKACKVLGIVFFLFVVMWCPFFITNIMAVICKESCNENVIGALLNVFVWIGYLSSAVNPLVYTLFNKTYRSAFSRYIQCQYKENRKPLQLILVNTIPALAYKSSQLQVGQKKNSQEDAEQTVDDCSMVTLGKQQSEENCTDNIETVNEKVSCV
UniProt P18901, whole entry: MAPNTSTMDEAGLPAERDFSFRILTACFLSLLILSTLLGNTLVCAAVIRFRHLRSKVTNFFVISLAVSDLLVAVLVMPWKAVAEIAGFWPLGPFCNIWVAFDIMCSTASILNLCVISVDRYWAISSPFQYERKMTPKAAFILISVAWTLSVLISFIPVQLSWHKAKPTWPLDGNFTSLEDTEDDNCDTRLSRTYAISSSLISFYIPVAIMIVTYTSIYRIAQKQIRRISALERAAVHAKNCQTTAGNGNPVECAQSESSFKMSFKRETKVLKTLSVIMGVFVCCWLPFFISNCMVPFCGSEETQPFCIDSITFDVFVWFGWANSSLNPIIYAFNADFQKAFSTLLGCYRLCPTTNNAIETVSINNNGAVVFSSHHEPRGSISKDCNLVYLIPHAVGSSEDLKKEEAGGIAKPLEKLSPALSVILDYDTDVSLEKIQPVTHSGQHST
UniProt P19020, whole entry: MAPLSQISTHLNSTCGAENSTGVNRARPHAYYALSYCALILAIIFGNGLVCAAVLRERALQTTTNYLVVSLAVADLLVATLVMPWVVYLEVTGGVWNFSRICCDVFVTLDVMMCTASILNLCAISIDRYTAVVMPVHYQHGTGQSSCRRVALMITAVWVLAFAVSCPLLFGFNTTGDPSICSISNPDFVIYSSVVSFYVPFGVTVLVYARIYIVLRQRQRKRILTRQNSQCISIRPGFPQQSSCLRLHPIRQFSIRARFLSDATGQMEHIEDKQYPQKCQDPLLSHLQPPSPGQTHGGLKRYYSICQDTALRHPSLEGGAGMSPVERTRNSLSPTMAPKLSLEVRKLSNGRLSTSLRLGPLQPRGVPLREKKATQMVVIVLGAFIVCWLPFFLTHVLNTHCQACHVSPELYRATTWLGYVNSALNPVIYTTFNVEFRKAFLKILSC

D3 receptor = D3 receptor (Rattus norvegicus, UniProt P19020); assay: Interaction with D3 receptor, 3H-7-OH-DPAT radioligand binding, olfactory tubule; conditions: for D3 pKi: Table 3; for Ki: read-out: D3 Ki (nM) ± ds, Table 2
[1] = Table 2, read-out: 5-HT2a Ki (nM) ± ds
[2] = Table 2, read-out: D1 Ki (nM) ± ds

Row | SMILES | Ki (5HT2a receptor; Table 1, mean and standard deviation, read-out: 5-HT2a Ki ± ds) | Ki (5HT2a receptor; [1]) | 5-HT2a pKi (5HT2a receptor) | Ki (D1 receptor; Table 1, mean and standard deviation, read-out: D1 Ki ± ds) | Ki (D1 receptor; [2]) | D1 pKi (D1 receptor) | D3 pKi (D3 receptor) | Ki (D3 receptor)
1 | CN1CCN(C2=Cn3cccc3Sc3ccc(Cl)cc32)CC1 [ST1508, 7-chloro-9-(4-methyl-1-piperazinyl)pyrrolo[2,1-b][1,3]benzothiazepine] | 0.34 ± 0.05 nM | 0.34 ± 0.05 nM | 9.47 | 1.9 ± 0.1 nM | 1.9 ± 0.1 nM | 8.72 | – | –
2 | CN1CCN(C2=Cn3cccc3Sc3ccc(F)cc32)CC1 [ST1928, 7-fluoro-9-(4-methyl-1-piperazinyl)pyrrolo[2,1-b][1,3]benzothiazepine] | – | 0.35 ± 0.04 nM | 9.46 | – | 7.7 ± 0.58 nM | 8.11 | 8.57 | 2.7 ± 0.1 nM
3 | Cc1ccc2n1C=C(N1CCN(C)CC1)c1ccccc1S2 [ST2092, 1-Methyl-9-(4-methylpiperazin-1-yl)pyrrolo[2,1-b][1,3]benzothiazepine] | – | 1.1 ± 0.05 nM | – | – | – | – | 7.74 | 18 ± 1 nM
4 | CN1CCN(C2=Cn3cccc3Sc3ccccc32)CC1 [ST1899, 9-(4-Methylpiperazin-1-yl) Pyrolo [2,1-b][1,3]benzothiazepine] | – | 0.6 ± 0.1 nM | 9.19 | – | – | – | – | –

From US6710041B2, “Pyrrolo[2,1-B][3,1] benzothiazepines and their use for the preparation of medicaments with antipsychotic activity” (Sigma-Tau Industrie Farmaceutiche Riunite S.p.A., priority 2003, dated 2004)
